Only a part is listed here, and it is no random draw. Calls of active or inactive are those of the source.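 How the source made its calls: active means inhibition above the plate cutoff, the mean inhibition of test wells on that plate plus 3 SD (cut at about 28% in these data); inactive means the rest.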
These compounds were tested against Sphingosine 1-phosphate receptor 3 (Homo sapiens) (UniProt Q99500) (assay: S1P3 receptor antagonists, primary screen, cell-based (AID 485;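 further: cells challenged with S1P at its EC80 of 0.8 µM; blue over green emission ratio from cleaved BLA substrate after 4 h stimulation; 0% = S1P-stimulated wells and 100% = unstimulated DMSO-only wells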)). Details: CHO S1P3 NFAT-BLA reporter, FRET fluorescence, antagonist mode; at 4.98 µM; hits give high values.

Protein sequences, listed by entry. Tags and fused reporters are not part of them.
UniProt Q99500, whole entry: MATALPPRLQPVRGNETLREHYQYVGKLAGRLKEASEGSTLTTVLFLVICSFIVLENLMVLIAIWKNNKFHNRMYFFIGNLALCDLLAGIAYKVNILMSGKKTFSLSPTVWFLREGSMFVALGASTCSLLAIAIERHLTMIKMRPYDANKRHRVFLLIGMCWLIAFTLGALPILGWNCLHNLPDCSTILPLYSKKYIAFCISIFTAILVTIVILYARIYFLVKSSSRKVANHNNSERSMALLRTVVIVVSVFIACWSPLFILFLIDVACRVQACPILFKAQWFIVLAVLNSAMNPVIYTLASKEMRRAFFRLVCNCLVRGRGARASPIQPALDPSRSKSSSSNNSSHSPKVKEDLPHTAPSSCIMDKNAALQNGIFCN

**Q.** For `COc1ccc(CN(CCCl)CCCl)cc1Cl`, which inhibition is on record?
**A.** inactive: -10.9%

**Q.** How did the inhibition turn out when `CN(C)c1cccc(C(=O)NCC2(N3CCCCC3)CCCCC2)c1` was run?
**A.** inactive: -4.77%

**Q.** For `CC(C)c1ccc(NC2CCN(C(=O)OC(C)(C)C)CC2)cc1`, which inhibition is on record?
**A.** inactive: -3.58%

**Q.** How did the inhibition turn out when `CN1CCN(CCOC(=O)C(O)(c2ccccc2)c2ccccc2)CC1` was run?
**A.** inactive: -4.25%

**Q.** For `COc1ccc(NC2CCN(C(=O)OC(C)(C)C)CC2)cc1`, which inhibition is on record?
**A.** inactive: -18.1%

**Q.** For `O=C(NCC1(N2CCCCC2)CCCCC1)c1cccc([N+](=O)[O-])c1`, which inhibition is on record?
**A.** inactive: -17.5%

**Q.** How did the inhibition turn out when `N#CC1(Nc2ccccc2)CCN(CCc2ccccc2)CC1` was run?
**A.** inactive: -6.1%

**Q.** `Cc1ccc(OCC(C)C)c(CN(CCCl)CCCl)c1` was tested. Which inhibition did it give?
**A.** inactive: 13.9%

**Q.** Which inhibition does the source give for `CCOc1ccc(C)cc1CN(CCCl)CCCl` here?
**A.** inactive: -0.29%

**Q.** With `COc1ccc(NC2CCN(CCc3ccccc3)CC2)c(OC)c1` as the compound, how does the inhibition read?
**A.** inactive: -50.7%

**Q.** Which inhibition does the source give for `CCOC(=O)N1CCC(Nc2ccc(OC)cc2)CC1` here?
**A.** inactive: -17.9%

**Q.** How did the inhibition turn out when `O=C(OC1CN2CCC1CC2)C1c2ccccc2Oc2ccccc21` (stereo unspecified) was run?
**A.** inactive: -3.9%

**Q.** `N#CC1(Nc2ccccc2)CCN(Cc2ccccc2)CC1` was tested. Which inhibition did it give?
**A.** inactive: 8%

**Q.** Which inhibition does the source give for `COc1ccc(C(=O)NCC2(N3CCCCC3)CCCCC2)c(OC)c1OC` here?
**A.** inactive: -12.3%

**Q.** With `CCC(CO)(C(=O)OC1CN2CCC1CC2)c1ccccc1` (stereo unspecified) as the compound, how does the inhibition read?
**A.** inactive: -10.9%

**Q.** `COc1cc(OC)cc(C(=O)NCC2(N3CCOCC3)CCCCC2)c1` was tested. Which inhibition did it give?
**A.** inactive: -17.1%

**Q.** How did the inhibition turn out when `CCCOc1ccc(C)cc1CN(CCCl)CCCl` was run?
**A.** inactive: 4.36%

**Q.** With `CCOc1ncccc1C(=O)NCC1(N2CCOCC2)CCCCC1` as the compound, how does the inhibition read?
**A.** inactive: 9%

**Q.** `CC(C)(C)OC(=O)N1CCC(Nc2ccccc2)CC1` was tested. Which inhibition did it give?
**A.** inactive: 7.64%

**Q.** For `CCN1CCC(Nc2cccc(F)c2)CC1`, which inhibition is on record?
**A.** inactive: -0.17%

**Q.** Which inhibition does the source give for `CN(C)c1ccc(C(=O)NCC2(N3CCCCC3)CCCCC2)cc1` here?
**A.** inactive: 6.95%

**Q.** Which inhibition does the source give for `Fc1ccccc1NC1CCN(Cc2ccccc2)CC1` here?
**A.** inactive: -64.8%

**Q.** For `N#Cc1ccc(C(=O)NCC2(N3CCCCC3)CCCCC2)cc1`, which inhibition is on record?
**A.** inactive: -34%

**Q.** Which inhibition does the source give for `N/C(=N\O)c1c(N)no[n+]1[O-]` here?
**A.** inactive: 2.4%

**Q.** Which inhibition does the source give for `O=C(OC1CN2CCC1CC2)C1c2ccccc2C=Cc2ccccc21` (stereo unspecified) here?
**A.** inactive: -2.13%

**Q.** Which inhibition does the source give for `COc1ccc(C(=O)NCC2(N3CCOCC3)CCCCC2)cc1OC` here?
**A.** inactive: -17%
